By UniProt entry, the sequences of proteins in these tests, tags left out. Where a name states a change or a piece, a line headed by the entry shows the natural chain unless it says otherwise.
UniProt P28845: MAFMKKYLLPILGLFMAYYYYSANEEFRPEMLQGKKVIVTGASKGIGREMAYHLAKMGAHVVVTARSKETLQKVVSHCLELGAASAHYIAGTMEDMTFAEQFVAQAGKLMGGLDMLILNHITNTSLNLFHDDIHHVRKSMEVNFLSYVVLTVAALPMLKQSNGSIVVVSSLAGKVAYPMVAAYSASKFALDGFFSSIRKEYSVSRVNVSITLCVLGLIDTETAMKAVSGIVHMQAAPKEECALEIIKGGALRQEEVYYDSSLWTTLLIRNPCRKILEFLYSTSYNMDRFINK

In patent publication US10039772B2, “Methods and compositions for treating alcohol use disorders” (priority 2015, dated 2018):

Molecular target: human 11β-HSD1 (Homo sapiens, UniProt P28845)
Assay: HTRF assay, human 11β-HSD1
Assay type: biochemical

CC1(C)[C@@H](OC(=O)CCC(=O)O)CC[C@]2(C)[C@H]3C(=O)C=C4[C@@H]5C[C@@](C)(C(=O)O)CC[C@]5(C)CC[C@@]4(C)[C@]3(C)CC[C@@H]12
IC50: 15.9 µM
